Experiments:
Papain = target: T1, Papain (Carica papaya, UniProt P00784); experiment: Papain inhibition, Ki by Dixon plot (Table PKC1); format: biochemical; conditions: 0.05M Tris-HCl pH 7.5, 2 mM EDTA, 5 mM cysteine, 1% DMSO, 25° C., substrate Nα-Benzoyl-Arg-AMC; read-out: Ki P (Papain)
T1 sequence (P00784 134-345): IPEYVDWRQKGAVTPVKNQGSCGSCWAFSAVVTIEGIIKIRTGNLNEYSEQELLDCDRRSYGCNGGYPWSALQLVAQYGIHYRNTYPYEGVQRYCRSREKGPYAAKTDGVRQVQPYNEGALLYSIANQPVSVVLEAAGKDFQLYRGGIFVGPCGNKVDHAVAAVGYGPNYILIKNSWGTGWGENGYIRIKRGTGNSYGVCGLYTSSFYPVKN
Description: (§1) Our discovery of Peptide Keto-Compounds effective as Calpain Inhibitors was made through assay of the Peptide Keto-Compounds as reversible inhibitors. Various concentrations of inhibitors in dimethylsulfoxide (DMSO) were added to the assay mixture, which contained buffer and substrate. The reaction was started by the addition of the enzyme and the hydrolysis rates were followed spectrophotometrically or fluorimetrically. 88 mM KH2 PO4, 12 mM Na2 HPO4, 1.33 mM EDTA, 2.7 mM cysteine, pH 6.0 was used as a buffer for cathepsin B; and 20 mM Hepes, 10 mM CaCl2, 10 mM β-mercaptoethanol, pH 7.2 buffer was utilized for calpain I and calpain II.
All peptide thioester hydrolysis rates were measured with assay mixtures containing 4,4'-dithiodipyridine [e324=19800 M-1 cm-1; Grasetti & Murray, Arch. […] Enzymatic hydrolysis rates were measured at various substrate and inhibitor concentrations, and Ki values were determined by Dixon plot.
The inhibition constants for papain shown in Table PKC1 were measured in 0.05M Tris-HCl, pH 7.5 buffer, containing 2 mM EDTA, 5 mM cysteine (freshly prepared), 1% DMSO, at 25° C., using N^α -Benzoyl-Arg-AMC as a substrate, except that those values of inhibition constants for papain marked with an "e" in Table PKC1 were measured in 50 mM Tris-HCl, pH 7.5 buffer, containing 20 mM EDTA, 5 mM cysteine, 9% DMSO, at 25° C., using N^α -Benzoyl-Arg-NA as a substrate.

Cathepsin B = Cathepsin B (Bos taurus, UniProt P07688); experiment: Cathepsin B inhibition, Z-Arg-Arg-AFC (Table PKC1); format: biochemical; conditions: pH 6.0 phosphate buffer, substrate Z-Arg-Arg-AFC; read-out: Ki CB (Cathepsin B)
Description: as §1
All peptide thioester hydrolysis rates were measured with assay mixtures containing 4,4'-dithiodipyridine [e324=19800 M-1 cm-1; Grasetti & Murray, Arch. Biochem. Biophys. 119, pp 41-49 (1967)]. Papain was assayed with Bz-Arg-AMC or Bz-Arg-NA [Kanaoka et al., Chem. Pharm. Bull. 25, 3126-3128 (1977)], and the AMC (7-amino-4-methylcoumarin) release was followed fluorimetrically (excitation at 380 nm, and emission at 460 nm). Cathepsin B was assayed with Z-Arg-Arg-AFC [Barrett and Kirschke, Methods Enzymol. […] Enzymatic hydrolysis rates were measured at various substrate and inhibitor concentrations, and Ki values were determined by Dixon plot.

[1] = test system: Calpain in crude brain extracts; experiment: Ca2+-stimulated spectrin proteolysis in crude brain extracts (Example 2); format: biochemical; conditions: 100 μM
Description: The activity of Calpain in crude brain extracts was measured by examining the Ca^2+ -stimulated proteolysis of the endogenous substrate spectrin. Brain tissue was homogenized in 10 mM Tris pH=7.4, 0.32M sucrose, 1 mM EGTA, 1 mM dithiothreitol and the nuclei and debris removed by low speed centrifugation. Various Calpain Inhibitors were added to the supernatant in a DMSO vehicle and a calcium salt (final effective concentration about 1.2 mM) added to start the reaction. Proteolysis of spectrin was evaluated by western blot as described by Seubert, et at. (Brain Research, 459:226-232, 1988), the disclosure of which is hereby incorporated by reference. Briefly, a known quantity of a spectrin-containing sample treated with Calpain is separated by SDS-PAGE and immunoblotted with anti-spectrin antibody. […] An examplary method for quantitating BDP's is to assay Spectrin BDP's by homogenizing brain parts in 20 mM Tris pH=7.2, 0.32M sucrose, 50 μM Ac-Leu-Leu-nLeu-H on ice. […] The proteins in the gels are transferred to nitrocellulose and the spectrin and BDP's detected using a rabbit polyclonal anti-spectrin antibody and established immunodetection methods. The amount of spectrin and BDP's in each sample can be quantitated by densitrometric scanning of the developed nitrocellulose. […]

Calpain within platelets = experiment: Platelet membrane permeation assay, spectrin proteolysis (Examples 4A, 4B); format: cell-based, rat; conditions: 100 μM, A23187 1 μM
Description: Platelets were isolated by a modification of the method of Ferrell and Martin, J Biol. Chem., 264:20723-20729 (1989), the disclosure of which is hereby incorporated by reference. Blood (15-20 ml) was drawn from male Sprague-Dawley rats into 100 mM EDTA-citrate containing 10 units heparin, and centrifuged 30 minutes at 1600 rpm at room temperature. The plasma was resuspended in 15 ml buffer 1 (136 mM NaCl, 2.7 mM KCl, 0.42 mM NaH2 PO4, 12 mM NaHCO3, 2 mM MgCl2, 2 mg/ml BSA (Sigma), 5.6 mM glucose, 22 mM Na3 Citrate pH 6.5) and platelets were isolated at 2200 rpm at room temperature of 25 minutes. Platelets were resuspended to 10^7 cells/ml in buffer 2 (136 mM NaCl, 2.7 mM KCl, 0.42 NaH2 PO4, 12 mM NaHCO3, 2 mM MgCl, 1 mg/ml BSA, 5.6 mM glucose, 20 mM HEPES pH 7.4) and allowed to "rest" for a minimum of 10 minutes at room temperature before use.
Platelets were incubated for 5 minutes in the presence of inhibitor. In order to provide sufficient intracellular calcium to activate Calpain, the calcium ionophore A23187 was added to a final concentration of 1 μM. After a further 5 minute incubation, the platelets were harvested by centrifugation (1 min 10,000×g) and resuspended in 10% sodium dodecyl sulfate, 10 mM Tris pH=8.0, 5% β-mercaptoethanol, 0.02% bromophenol blue, and heated to 95° C. for 5 min. […] Spectrin immunoreactivity on the filters was quantitated by densitometry. […]

For CCOC(=O)C(=O)C(C)NC(=O)[C@H](C)NC(=O)[C@H](C)NC(=O)[C@H](C)NC(=O)OCc1ccccc1 (mixture of isomers) [Z-Ala-Ala-Ala-DL-Ala-COOEt, Z-Ala-Ala-Ala-DL-Ala-CO2 Et], the Ki (Papain) was 2.1 µM, the Ki (Cathepsin B) was 10 µM and the “inhibition of spectrin proteolysis in crude brain extracts” value [1] was “significant inhibition”. The “inhibition of Calpain within platelets” value (Calpain within platelets) was “significant inhibition”.

Reference: US5444042A, “Method of treatment of neurodegeneration with calpain inhibitors” (Cortex Pharmaceuticals, priority 1994, dated 1995)
